ChEMBL document CHEMBL4020831, “Discovery of GDC-0853: A Potent, Selective, and Noncovalent Bruton's Tyrosine Kinase Inhibitor in Early Clinical Development” (J Med Chem, 2018)
pIC50, pKi: −log10 of the molar value.

The chains behind the UniProt entries cited, without tags or fusion partners. Where a name states a change or a piece, a line headed by the entry shows the natural chain unless it says otherwise.
UniProt Q06187: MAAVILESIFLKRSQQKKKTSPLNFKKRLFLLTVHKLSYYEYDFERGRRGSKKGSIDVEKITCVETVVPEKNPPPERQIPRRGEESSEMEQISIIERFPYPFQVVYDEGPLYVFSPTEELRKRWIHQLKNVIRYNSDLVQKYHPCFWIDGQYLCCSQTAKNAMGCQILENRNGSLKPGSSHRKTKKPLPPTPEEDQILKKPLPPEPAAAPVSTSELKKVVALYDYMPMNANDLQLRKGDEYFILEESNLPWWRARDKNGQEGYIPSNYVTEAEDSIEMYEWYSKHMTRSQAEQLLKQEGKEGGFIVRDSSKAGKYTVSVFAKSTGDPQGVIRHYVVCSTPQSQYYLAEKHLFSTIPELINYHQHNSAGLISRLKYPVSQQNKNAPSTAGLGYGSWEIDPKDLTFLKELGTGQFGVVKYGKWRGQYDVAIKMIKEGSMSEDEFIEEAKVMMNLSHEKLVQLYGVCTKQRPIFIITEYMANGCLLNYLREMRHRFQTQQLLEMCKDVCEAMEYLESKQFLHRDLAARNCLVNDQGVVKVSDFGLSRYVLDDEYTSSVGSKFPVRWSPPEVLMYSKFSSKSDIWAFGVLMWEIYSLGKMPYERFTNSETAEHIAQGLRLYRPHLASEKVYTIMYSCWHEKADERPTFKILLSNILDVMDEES

What was measured:
[1] = molecular target: T1, Tyrosine-protein kinase BTK (Homo sapiens, UniProt Q06187)
[2] = molecular target: T1, Tyrosine-protein kinase BTK; assay: Inhibition of human recombinant C-terminal polyhistidine tagged BTK (1 to 659 residues)-mediated synthetic peptide substrate phosphorylation expressed in baculovirus-infected insect cells

Row | SMILES | pIC50 [1] | pKi [2]
1 | CN1CCN(c2ccc(Nc3cc(-c4cc(F)cc(N5CCn6c(cc7c6CCCC7)C5=O)c4CO)cn(C)c3=O)nc2)CC1 | 7.56 | –
2 | Cn1cc(-c2cc(F)cc(N3CCn4c(cc5c4CCCC5)C3=O)c2CO)cc(Nc2ccc(N3CCN(C4COC4)CC3)cn2)c1=O | 7.44 | 9.16
